The list shows a part of the results, in another mix than the full data. Calls of active or inactive are those of the source.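 Rule for the calls: active = HER2 level under 5% of the carrier-only control; inconclusive = no clear call, values can overlap the other calls; inactive = the rest.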

Amino acid sequences for entries named in this document (tags omitted).
UniProt P04626, whole entry: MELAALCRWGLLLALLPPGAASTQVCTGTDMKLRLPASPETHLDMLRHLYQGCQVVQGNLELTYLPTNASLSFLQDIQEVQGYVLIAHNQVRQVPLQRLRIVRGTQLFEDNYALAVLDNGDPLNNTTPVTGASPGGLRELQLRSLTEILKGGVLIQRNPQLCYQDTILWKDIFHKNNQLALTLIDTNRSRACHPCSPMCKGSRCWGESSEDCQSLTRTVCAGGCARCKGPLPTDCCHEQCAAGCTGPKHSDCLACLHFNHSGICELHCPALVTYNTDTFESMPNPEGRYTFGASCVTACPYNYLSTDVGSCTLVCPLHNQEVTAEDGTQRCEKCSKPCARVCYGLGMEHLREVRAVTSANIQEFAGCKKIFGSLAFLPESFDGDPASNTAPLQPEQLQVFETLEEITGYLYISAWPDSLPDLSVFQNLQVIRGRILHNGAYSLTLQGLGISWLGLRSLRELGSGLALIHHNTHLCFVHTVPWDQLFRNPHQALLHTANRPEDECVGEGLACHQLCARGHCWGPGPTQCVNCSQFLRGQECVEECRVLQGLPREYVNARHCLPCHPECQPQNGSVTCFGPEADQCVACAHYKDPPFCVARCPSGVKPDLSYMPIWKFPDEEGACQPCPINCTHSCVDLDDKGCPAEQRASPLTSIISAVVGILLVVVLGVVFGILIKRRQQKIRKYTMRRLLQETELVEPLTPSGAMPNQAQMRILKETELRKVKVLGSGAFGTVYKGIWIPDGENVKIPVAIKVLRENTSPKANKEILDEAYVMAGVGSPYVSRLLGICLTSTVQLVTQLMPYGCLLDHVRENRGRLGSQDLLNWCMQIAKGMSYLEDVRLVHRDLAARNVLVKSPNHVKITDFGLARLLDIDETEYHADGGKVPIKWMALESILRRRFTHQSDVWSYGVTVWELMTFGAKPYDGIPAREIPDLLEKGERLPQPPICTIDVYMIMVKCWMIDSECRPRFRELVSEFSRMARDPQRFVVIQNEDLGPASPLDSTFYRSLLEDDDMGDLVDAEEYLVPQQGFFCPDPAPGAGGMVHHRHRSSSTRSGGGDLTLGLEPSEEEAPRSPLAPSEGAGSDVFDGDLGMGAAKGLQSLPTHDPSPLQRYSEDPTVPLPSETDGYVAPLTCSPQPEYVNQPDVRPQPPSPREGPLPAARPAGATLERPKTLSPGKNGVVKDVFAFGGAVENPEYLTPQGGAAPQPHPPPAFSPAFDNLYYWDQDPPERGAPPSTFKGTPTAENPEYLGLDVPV

For this experiment, the target named is Receptor tyrosine-protein kinase erbB-2 (Homo sapiens) (UniProt P04626). Nature of the experiment: reducers of endogenous HER2 protein levels – SKBR-3 cells, AlphaScreen, 66K library, primary screen (AID 645).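 Note: 100% = DMSO carrier and 0% = 500 nM PU-H71 HSP90 inhibitor; lower value means stronger loss of Her2 protein.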 The following applies: SKBR-3 HER2 protein level, 18-24 h, at 10 µM, active compounds read low.
In the case of `CCN(CC)CC(O)COC(=O)C(O)(c1ccccc1)C1CCCCC1` (stereo not drawn), the HER2 level % of control was inactive: 106%. As to `CP(=O)(Oc1ccccc1)N1CCOC1=O` (stereo not drawn), the HER2 level % of control was inactive: 81.5%. In the case of `COc1ccccc1OP(C)(=O)Nc1c(C)n(C)n(-c2ccccc2)c1=O` (stereo not drawn) it was inactive: 141%; in that of `CP(=O)(Nc1ccccn1)Oc1ccccc1` (stereo not drawn), inactive: 90.7%; in that of `COc1ccccc1OP(C)(=O)Nc1ccc(C)c(C)c1` (stereo not drawn), inactive: 79.9%. In the case of `Cc1nc2ccc3ccccc3c2o1.O=[N+]([O-])c1cc([N+](=O)[O-])c(O)c([N+](=O)[O-])c1` it was inactive: 106%; in that of `CP(=O)(Nc1ccccc1F)Oc1ccccc1` (stereo not drawn), inactive: 116%; in that of `CCOP(C)(=S)SCC(=O)NC(C)(CC)C(=O)O` (stereo not drawn), inactive: 108%. Consider `CP(=O)(Nc1ccc2c(c1)OCCO2)Oc1ccccc1` (stereo not drawn), for which the HER2 level % of control is inactive: 98.2%. Take `Cc1ccccc1NP(C)(=O)Nc1ccccc1C`: the HER2 level % of control is inactive: 111%. Take `CN(C)CCOC(=O)C(O)(c1ccccc1)C1CCCCC1` (stereo not drawn): the HER2 level % of control is inactive: 104%. With `Cc1nc2ccc3ccccc3c2s1.O=[N+]([O-])c1cc([N+](=O)[O-])c(O)c([N+](=O)[O-])c1`, the HER2 level % of control was inactive: 120%. With `Cc1ccc(C)c(NP(C)(=O)Oc2ccccc2)c1` (stereo not drawn), the HER2 level % of control is inactive: 96.3%. Take `Cc1ccc(NP(C)(=O)Oc2ccccc2)c(C)c1` (stereo not drawn): the HER2 level % of control was inactive: 88.9%. With `COc1ccccc1OP(C)(=O)Nc1ccc(C)cc1` (stereo not drawn), the HER2 level % of control is inactive: 92.7%. Regarding `CP(=O)(NC(=O)Nc1ccccc1)Oc1ccccc1` (stereo not drawn), the HER2 level % of control is inactive: 299%. In the case of `CCOP(C)(=S)SCC(=O)NC(C)C(=O)O` (stereo not drawn) it was inactive: 122%; in that of `CP(=S)(Nn1cnnc1)Oc1ccccc1` (stereo not drawn), inactive: 93.2%.
